Laboratory results from patent US20230024108A1, “ADENOSINE A2A RECEPTOR ANTAGONISTS” (Teon Therapeutics, Inc., priority 2019, published 2023).

By UniProt entry, the sequences of proteins in these tests, tags left out. Where a name states a change or a piece, a line headed by the entry shows the natural chain unless it says otherwise.
UniProt P30542, whole entry: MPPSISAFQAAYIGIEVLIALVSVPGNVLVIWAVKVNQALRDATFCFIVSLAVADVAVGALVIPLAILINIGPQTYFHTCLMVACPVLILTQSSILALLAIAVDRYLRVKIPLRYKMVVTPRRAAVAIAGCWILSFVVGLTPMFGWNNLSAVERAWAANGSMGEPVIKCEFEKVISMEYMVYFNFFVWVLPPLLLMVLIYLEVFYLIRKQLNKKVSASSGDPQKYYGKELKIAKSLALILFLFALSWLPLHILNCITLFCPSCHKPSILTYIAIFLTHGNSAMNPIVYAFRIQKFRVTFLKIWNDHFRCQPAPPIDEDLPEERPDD
UniProt P29275, whole entry: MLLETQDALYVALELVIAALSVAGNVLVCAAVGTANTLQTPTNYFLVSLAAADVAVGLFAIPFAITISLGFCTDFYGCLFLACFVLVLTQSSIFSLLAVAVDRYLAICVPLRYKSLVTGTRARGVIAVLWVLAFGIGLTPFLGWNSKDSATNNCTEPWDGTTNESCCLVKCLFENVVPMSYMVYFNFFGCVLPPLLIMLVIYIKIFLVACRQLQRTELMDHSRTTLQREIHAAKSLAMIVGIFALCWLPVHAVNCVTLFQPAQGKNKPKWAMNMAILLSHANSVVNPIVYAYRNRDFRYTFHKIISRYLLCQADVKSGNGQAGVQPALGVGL

Columns and labels:
phospho-CREB (pCREB) = assay: Human whole blood phospho-CREB (pCREB) assay / modulation of pCREB in human immune cells; details: read-out: pCREB EC50; agonist (NECA or CGS-21680)-stimulated human blood cells
Method: Fresh human blood samples are derived from healthy volunteers and processed in heparin tubes. 67.5 ul of whole blood is aliquoted to each well in a 96-well plate and incubated at 37° C. for 30 min. Testing compounds are diluted with DMSO to make 8-point 3-fold serial dilution and 3.5 ul (20×) is added to each well. Cells are incubated with the compounds at 37° C. for 30 min. NECA (5 uM) is then added to each well and cells are incubated for 30 min at 37° C. Following the stimulation, cells are transferred to a 96-well deep well plates and fixed with 1 ml/well of lyse/fix buffer (1×) (BD Biosciences #558049) with vigorous shake at 37° C. for 10 min. Cells are centrifuged at 600 g for 6 min and washed twice with PBS, followed by addition of 800 ul/well Perm buffer III (BD Biosciences #558050). […] Data were analyzed using FlowJo version 9. The level of CREB phosphorylation from unstimulated cells (Low control: LC) and NECA-stimulated cells (High control: HC) are determined as mean fluorescent intensity (MFI) in stimulated condition/mean fluorescent intensity in unstimulated condition. % Inhibition is calculated as (MFI of HC-MFI of assay well)/(MFI of HC-MFI of LC)×100%. Data are analyzed and IC50s calculated using GraphPad Prism 5 and the model “log(inhibitor) vs. response—Variable slope”. […]

A1AdoR = A1AdoR (Homo sapiens, UniProt P30542); assay: Adenosine receptor binding assay, A1 ([3H]-DPCPX); details: ratio A1 vs A2A binding
Method: (§1) Membranes prepared from CHO-K1 cells stably expressing Human AiAdoR (ES-010-M400UA), HEK-293 cells stably expressing human A2A AdoR (RBHA2AM400UA), HEK-293 cells stably expressing human A2B AdoR (ES-013-M400UA) and CHO-K1 cells stably expressing Human A3 AdoR (ES-012-M400UA) were purchased from PerkinElmer (Waltham, Mass., USA) and stored at −80° C. until use. Binding assays are performed using the radioligands. The final concentrations are as follows: [3H]-DPCPX (PerkinElmer, NET974001MC) at 1 nM for A1AdoR; [^3H]-CGS-21680 (PerkinElmer, NET1021250UC) at 6 nM for A2AAdoR, [3H]-DPCPX (PerkinElmer, NET974001MC) at 8 nM for A2BAdoR; [^3H]-HEMADO (ARC, Cat: ART1456) at 1 nM for A3AdoR. […] Nonspecific binding (Low control: LC) and total binding (High control: HC) are determined in the presence or absence of saturated cold ligand. Specific binding is calculated by subtracting nonspecific binding from total binding. […] The filters are dried for 1 hour at 50° C. and [^3H] trapped on filter counted for radioactivity in Perkin Elmer Microscint 20 cocktail (#6013329) using Perkin Elmer MicroBeta2 Reader. […] Data are analyzed and IC50 is calculated using GraphPad Prism 5 and the model “log(inhibitor) vs. response—Variable slope”. The binding affinity of the compounds is determined by using the Cheng and Prusoff equation Ki=IC50/(1+[radioligand]/Kd).

human A2B AdoR = human A2B AdoR (Homo sapiens, UniProt P29275); assay: Adenosine receptor binding assay, A2B ([3H]-DPCPX); details: ratio A2B vs A2A binding
Method: as §1

human A2A AdoR = human A2A AdoR (Homo sapiens, UniProt P29274); assay: Adenosine receptor binding assay, A2A ([3H]-CGS-21680); details: read-out: hA2A IC50; membranes of HEK-293 cells expressing human A2A AdoR
Method: as §1

**Q.** With `N#Cc1cc2c(nc(N)n3nc(-c4ccccn4)nc23)n1CCN1CCN(c2ccc(OCC(=O)O)cc2)CC1` as the compound, how does the EC50 (phospho-CREB (pCREB)) read?
**A.** 20 to 100 nM

**Q.** And the “A1/A2A Selectivity” value (A1AdoR)?
**A.** b (greater than 100 but less than or equal to 1000)

**Q.** What about the “A2B/A2A Selectivity” value (human A2B AdoR) of the same compound?
**A.** a (greater than 1000)

**Q.** And the IC50 (human A2A AdoR)?
**A.** < 20 nM
